Data on 100 molecules can be found in PubChem BioAssay AID1863 (Southern Research Specialized Biocontainment Screening …, 2009).

“And” between values parts separate entries of the source, which are not always exact repeats. Equal values may be shown once. This is a selection; strong and weak results do not stand in their true shares. Entries with a potency or affinity are not part of this list. The source made the active and inactive calls.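 How the source made its calls: active means inhibition over 29.93%, a cutoff 3 SD above the screen mean, later confirmed by dose response; inconclusive means inhibition over 29.93% but no dose response follow-up; inactive means inhibition at most 29.93% or unconfirmed.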

The nature of this assay: inhibitors of PhoP regulon expression, primary screen, Salmonella Typhimurium, GFP reporter (AID 1863).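 Further: 0% = low Mg2+ inducing control and 100% = high Mg2+ repressing control.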 To be noted: S. Typhimurium PhoP-regulated promoter GFP reporter, 4 h; at 50 µM; hits give high values.
Consider `COc1ccc(C2=NCC(CBr)S2)cc1` (stereo not given), for which the inhibition (commonly the relative decrease from the control value, in per cent) was inactive: -6.82%.

Regarding `CC(=O)N1C2C3N(C(C)=O)C1C1N(C(C)=O)C(C(N1C(C)=O)N3C(C)=O)N2C(C)=O`, the inhibition was inactive: 27.4%. Under `O=[N+]([O-])c1cccc2n[nH]nc12` stands inactive: -2.23%; under `Cc1ccc(NP(=O)(Oc2ccccc2)Oc2ccccc2)nc1`, inactive: -8.3%; under `O=[N+]([O-])c1cc([N+](=O)[O-])c(CCNc2ccccc2)c([N+](=O)[O-])c1`, inactive: 6.47%. Under `CCc1nc2c(n1)c1c(non1O)c1c2no[n+]1[O-]` stands inactive: 1.11%; under `Nc1ccc([As](=O)(O)c2ccc(N)cc2)cc1`, inactive: 4.15%.

For `C[N+]1=C2C=CC=CC=C2SC12C([N+](=O)[O-])=CC([N+](=O)[O-])=C[C-]2[N+](=O)[O-]` (stereo not given), the inhibition was inactive: 21.4%. Under `CCN(/C(=N/P(=O)(N1CCOCC1)N1CCOCC1)N1CCOCC1)c1ccc(OC)cc1` stands inactive: 4.03%; under `CC(C)=N/N=C(\N)N[N+](=O)[O-]`, inactive: 2.14%; under `CN(C)C(=O)OCCc1n(C)cc[n+]1C`, inactive: -22.3%. Then `CC1CCN(C(=O)Oc2c(Cl)cc(Cl)c3cccnc23)CC1`, with inactive: -1.76%.

Take `O=C(Nc1cc([As](=O)(O)O)ccc1O)c1ccccc1`: the inhibition is inactive: -3.64%. Under `CC(C)(C)C(=O)NC(Sc1ccncn1)C(Cl)(Cl)Cl` (stereo not given) stands inactive: -5.35%; under `O=[N+]([O-])c1ncn(CCn2ncnc2[N+](=O)[O-])n1`, inactive: 3.28%.

For `O=[N+]([O-])c1cccc(NC2=NCC(CBr)S2)c1` (stereo not given), the inhibition is inactive: -8.77%. Regarding `O=C(O)CNc1ccc([As](=O)(O)O)cc1`, the inhibition is inactive: -5.41%.

Turning to `CC(=O)Nc1ccc([As](=O)(O)O)cc1`, the inhibition was inactive: -3.23%. For `O=P(Nc1nc2ccc(Cl)cc2s1)(c1ccccc1)c1ccccc1`, the inhibition is inactive: -11%. Under `Cc1cc(SC(NC(=O)c2ccc(F)cc2)C(Cl)(Cl)Cl)ncn1` (stereo not given) stands inactive: 14.9%.

Take `CCOP(=O)(Nc1ccccc1)OCC`: the inhibition was inactive: -9.51% and inactive: -3.2%.

`CN(C(=O)Cc1ccc(Cl)c(Cl)c1)[C@H]1CCCC[C@@H]1N1CCCC1`: the inhibition is inactive: -6.85%. Under `Cc1ccc(NP(=O)(Oc2ccccc2F)Oc2ccccc2F)nc1` stands inactive: -8.93%; under `O=[N+]([O-])c1cc([N+](=O)[O-])c(CCN2CCOCC2)c([N+](=O)[O-])c1`, inactive: 4.49%.

As for `CCN(N=Nc1nonc1N)c1nonc1N`, the inhibition is inactive: 6.31%.

As for `Nc1cccc2ccc([As](=O)(O)O)cc12`, the inhibition was inactive: -8.41%. Under `NC(=O)c1cc([N+](=O)[O-])cc([N+](=O)[O-])c1N` stands inactive: 3.45%; under `CN(C(=O)Cc1ccc(Cl)c(Cl)c1)[C@H]1CCCC[C@H]1N1CCCC1`, inactive: -3.62%; under `Cc1ccc(N/C(=N/P(=O)(N2CCOCC2)N2CCOCC2)N2CCOCC2)cc1`, inactive: -0.36%. Under `Cc1ccc(OP(=O)(Nc2nccs2)Oc2ccc(C)cc2)cc1` stands inactive: -14.5%; under `CN1CCCC(OC(=O)C(c2ccccc2)c2ccccc2)C1` (stereo not given), inactive: -3.66%.

With `Clc1ccc(Cl)c(NC2=NCC(CBr)S2)c1` (stereo not given), the inhibition was inactive: -8.5%. Then `CC(C)CC(=O)NC(Sc1ccc(Cl)cc1)C(Cl)(Cl)Cl` (stereo not given), with inactive: 1.64%; and `Oc1ccccc1CNc1ccccn1`, with inactive: -2.17%; and `O=C(NC(Sc1ccncn1)C(Cl)(Cl)Cl)c1ccccc1` (stereo not given), with inactive: 17%. In the case of `Cc1c2non([O-])c-2c(C)[n+](=O)[n+]1[O-]`, the inhibition was inactive: -31.9%. Under `O=P1(Nc2nc3ccc(Cl)cc3s2)COc2ccccc2O1` (stereo not given) stands inactive: 26.5%; under `CCOc1ccc(C2=NCC(CBr)S2)cc1` (stereo not given), inactive: 2.31%.

Regarding `CC(C)(C)C(=O)NC(Sc1ccccc1)C(Cl)(Cl)Cl` (stereo not given), the inhibition was inactive: -7.55%. Then `C[C@H]1OP(=O)(Oc2ccccc2)C[C@@H]2O[C@@H]21` (stereo not given in full), with inactive: -4.41%; and `C[C@@H]1C=CCP(=O)(Oc2ccccc2)O1` (stereo not given in full), with inactive: -0.625%; and `CC(=O)Nc1ccc([As](=O)(O)O)c(O)c1`, with inactive: -10.3%.

Take `CC(=O)Nc1ccc(Oc2c([N+](=O)[O-])cc([N+](=O)[O-])cc2[N+](=O)[O-])cc1`: the inhibition was inactive: 6.93%. For the molecule `O=C(NC1CCS(=O)(=O)C1)NP(=S)(Oc1ccccc1)Oc1ccccc1` (stereo not given), the inhibition is inactive: 5.46%. Then `CCNC(=S)/N=C(\N)N[N+](=O)[O-]`, with inactive: -9.44%; and `c1ccc(-c2nn[nH]n2)c(-c2nn[nH]n2)c1`, with inactive: -4.37%. Under `CCOC(=O)NC(Sc1ccccc1)C(Cl)(Cl)Cl` (stereo not given) stands inactive: 1.09%; under `Cc1ccc(NP(=O)(Oc2cccc(C)c2)Oc2cccc(C)c2)nc1`, inactive: -5.01%; under `COC(=O)c1cc2c(s1)N=C(c1ccccc1)N(C)P2(=O)N1CCOCC1` (stereo not given), inactive: -10.2%. Under `Cc1ccc(OP(=O)(Nc2ccccn2)Oc2ccc(C)cc2)cc1` stands inactive: -5.27%; under `CC(=O)NC(SC(=S)N(CC(C)C)CC(C)C)C(Cl)(Cl)Cl` (stereo not given), inactive: 10.7%.

Take `O=C(OC1CN2CCC1CC2)c1ccccc1` (stereo not given): the inhibition was inactive: 0.43%. `CCC(=O)N1C2C3N(C(=O)CC)C1C1N(C(=O)CC)C(C(N1C(=O)CC)N3C(=O)CC)N2C(=O)CC`: the inhibition was inactive: 2.92%. Then `Cc1ccccc1OP(=O)(Nc1ccccn1)Oc1ccccc1C`, with inactive: -13.1%; and `O=c1c2cc([N+](=O)[O-])ccc2[nH]c2c([N+](=O)[O-])cc([N+](=O)[O-])cc12`, with inactive: -5.83%; and `CN(C)C(=O)Oc1noc2ccccc12`, with inactive: -0.24%. Then `CN(C)C1(CNC(=O)c2ccc(Cl)c(S(N)(=O)=O)c2)CCCCC1`, with inactive: -5.61%.

In the case of `O=P(Nc1ccccn1)(c1ccc(Br)cc1)c1ccc(Br)cc1`, the inhibition is inactive: 1.43%. Under `O=P(Nc1nc2ccccc2s1)(c1ccccc1)c1ccccc1` stands inactive: -5.31%; under `C[C@H]1OP(=O)(Oc2ccccc2)[C@H](O)[C@H](O)[C@H]1N=[N+]=[N-]` (stereo not given in full), inactive: -1.71%.

Regarding `O=[N+]([O-])c1ncn(CCn2cnc([N+](=O)[O-])n2)n1`, the inhibition is inactive: -16.7%. On to `CC(=O)NC(SC(=S)N(C)C)C(Cl)(Cl)Cl` (stereo not given), for which the inhibition was inactive: -8.05%. Then `O=[N+]([O-])c1ccc(O)c(/C=N/Nc2ccc([N+](=O)[O-])cc2[N+](=O)[O-])c1`, with inactive: -0.4%; and `O=[As](O)(c1ccccc1)c1ccc(O)cc1`, with inactive: -3.62%. On to `C(Cc1nn[nH]n1)Cc1nn[nH]n1`, for which the inhibition is inactive: -18.2%.

Regarding `Nc1ccc([As](=O)(O)c2ccc([N+](=O)[O-])cc2)cc1`, the inhibition was inactive: -4.68%.

In the case of `O=C(OC1CN2CCC1CC2)c1cccc(Cl)c1` (stereo not given), the inhibition is inactive: 4.22%. Under `O=P(Nc1nccs1)(c1ccccc1)c1ccccc1` stands inactive: 1.16%; under `CC(C)C(=O)NC(Sc1ccccc1)C(Cl)(Cl)Cl` (stereo not given), inactive: -2.33%; under `c1nnnn1CCn1cnnn1`, inactive: 3.38%. With `CCOP(=O)(Nc1ccc(C)cn1)OCC`, the inhibition is inactive: -4.07%. Then `CN(CCCl)Cc1cc(Cl)c(NC2=NCCN2)c(Cl)c1`, with inactive: -2.63%; and `O=P1(Nc2ccccn2)COc2ccccc2OC1`, with inactive: 7.15%; and `CCOP(=O)(NC(=NC(C)c1ccccc1)NC(C)c1ccccc1)OCC` (stereo not given), with inactive: 6.54%.

`Clc1n[nH]nc1-c1nn[nH][15n]1`: the inhibition is inactive: -6.28%. Under `CC(C)(C)C(=O)NC(Sc1ncccn1)C(Cl)(Cl)Cl` (stereo not given) stands inactive: 4.83%. Under `COc1ccccc1CNC(=O)COC(=O)C(O)(c1ccccc1)c1ccccc1` stands inactive: -6.29%; under `O=[As](O)(c1ccccc1Br)c1ccccc1Br`, inactive: -8.25%.

For the molecule `CN(C(=O)Cc1ccc(Cl)c(Cl)c1)[C@@H]1CCCC[C@H]1N1CCCC1`, the inhibition is inactive: -5.86% and inactive: -5.24%.

Regarding `CC(C)/C=N\N=C(\N)N[N+](=O)[O-]`, the inhibition is inactive: -3.56%. Take `Cc1nn(-c2ccccc2)c2c1P(=O)(N1CCOCC1)N(C)C(c1ccccc1)=N2` (stereo not given): the inhibition was inactive: 1.52%. Under `CC1CCC(C(C)C)C(OP(=O)(Nc2ccccn2)c2ccccc2)C1` (stereo not given) stands inactive: 1.22%; under `O=C(/C=C/c1ccccc1)OC1CN2CCC1CC2` (stereo not given), inactive: 8.97%; under `CN(C)C1(CNC(=O)c2ccc(S(C)(=O)=O)cc2)CCCCC1`, inactive: -0.69%.

Consider `O=P1(Nc2ncccn2)COc2ccccc2OC1`, for which the inhibition is inactive: 1.1%. In the case of `O=[As](O)(c1cccs1)c1cccs1`, the inhibition was inactive: -2.96%. Under `Cc1ccc(OCC(=O)OC2CN3CCC2CC3)cc1` (stereo not given) stands inactive: -7.78%; under `O=P1(Nc2ccc(Br)cn2)COc2ccccc2OC1`, inactive: -9.83%; under `Nc1cccc([As](=O)(O)c2ccccc2)c1`, inactive: -0.26%. In the case of `CS(=O)(=O)c1cc([N+](=O)[O-])c2no[n+]([O-])c2c1`, the inhibition was inactive: -23%. Under `CCOP1(=S)c2c(C)nn(CCC#N)c2N=C(c2ccccc2F)N1C` (stereo not given) stands inactive: 8.68%.

With `O=P(Nc1nccs1)(Oc1ccccc1)Oc1ccccc1`, the inhibition was inactive: -4.92%. In the case of `O=P(Nc1nccs1)(c1ccccc1)c1nc2ccccc2s1` (stereo not given), the inhibition was inactive: 4.12%. Take `O=C(O)COc1ccc([As](=O)(O)O)cc1[N+](=O)[O-]`: the inhibition is inactive: 5.21%.

Regarding `Nc1ccccc1[As](=O)(O)c1ccccc1`, the inhibition is inactive: -0.18%.

Consider `NC(=O)Nc1ccc([As](=O)(O)O)cc1`, for which the inhibition is inactive: -3.92%. `O=[N+]([O-])c1ccc2c(c1)nnn2O`: the inhibition was inactive: 7.49%. As for `CN(C(=O)Cc1ccc(Cl)c(Cl)c1)[C@H]1CC[C@@]2(CCCO2)C[C@@H]1N1CCCC1`, the inhibition was inactive: -7.95%. Consider `N#CCCN(C(=O)COC(=O)C(O)(c1ccccc1)c1ccccc1)c1ccc(F)cc1`, for which the inhibition is inactive: -1.21%. On to `CCOP1(=S)c2c(C)nn(CCC#N)c2N=C(c2ccc(F)cc2)N1C` (stereo not given), for which the inhibition was inactive: 10%.
